Experimental data from patent publication US12594347B2, “Nanoparticulate drug delivery systems” (Duke University, priority 2018, dated 2026).

Conditions: mouse, in vivo

MSA: Mouse serum albumin labeled with Alexa488, administered as a positive control
Apparent distribution volume VD: 2.78 ± 0.11 mL/g | Area under the curve AUC: 157.3 ± 4.3 µM·h | Distribution half-life β t1/2: 1.21 ± 0.17 h | Elimination rate constant kg: 0.05 ± 0.00 h⁻¹ | Plasma clearance CL: 0.058 ± 0.002 mL/h/g | Plasma to tissue rate constant kpt: 0.30 ± 0.05 h⁻¹ | Tissue to plasma rate constant ktp: 0.24 ± 0.04 h⁻¹
